How the values were obtained:
[1] = system: U266; experiment: Combination with BT062 in cell lines (Chou and Talalay median effect analysis); assay type: cell-based, human; conditions: U266 cells
Protocol: (§1) Combination studies in xenograph mouse models were preceded by studies in cell lines. […] Here, IC50 values for the cytotoxic effects for each drug and each cell line are calculated, and then IC50 ratios for each drug pair. The cells were then exposed to dilution series of either these drug mixtures, or the drugs alone. Experimental data were analyzed using the CompuSyn software (ComboSyn, Inc., Paramus, N.J.). Combination Indexes (CI) for each independent experiment were calculated and reported separately. In the analysis, CI less than 1, equal to 1 and more than 1 indicates synergy, additivity and antagonism, respectively. According to the classification of T. C.

[2] = system: RPMI 8226; experiment: as above; assay type: cell-based; conditions: RPMI 8226 cells
Protocol: as §1

SMILES	estimate of synergy, drug combined with BT062 [1]	estimate of synergy, drug combined with BT062 [2]
O=C1CCC(N2C(=O)c3ccccc3C2=O)C(=O)N1 (stereo not drawn) [Thalidomide, α-(N-phthalimido) glutarimide]	Antagonistic	
CC(C)C[C@H](NC(=O)[C@H](Cc1ccccc1)NC(=O)c1cnccn1)B(O)O [Velcade, reference compound]	Antagonistic	Additive
